# Data from US12514853B2, “Therapeutic dendrimer” (Starpharma Pty Ltd, priority 2018, dated 2026).
# What was measured:
# [1] = system: Metastatic Colorectal Cancer; details: cited from earlier work
# [2] = Single dose pharmacokinetic study in rats; details: rat, single slow bolus IV, irinotecan 70 mg/kg; not detectable after 24 hours
compound,measurement,setting,value
"cetuximab: anti-epidermal growth factor receptor (EGFR, also known as ErbB-1 or HER-1) antibody","tumour response, OR","[1]; cetuximab added to standard chemotherapy regimen vs chemotherapy alone, p=0.004",1.40
same,"risk of progression, HR","[1]; cetuximab added to standard chemotherapy regimen vs chemotherapy alone, p=0.048",0.85
same,"OS, HR","[1]; cetuximab added to standard chemotherapy regimen vs chemotherapy alone, p=0.31",0.93
same,risk of progression (time),"[1]; cetuximab added to standard chemotherapy regimen, vs 8 months for chemotherapy alone",8.9 months
same,OS,"[1]; cetuximab added to standard chemotherapy regimen, vs 18.6, not statistically significant",19.9
same,tumour response,"[1]; cetuximab added to standard chemotherapy regimen, vs 38.7% for chemotherapy alone",46.9%
"CCc1c2c(nc3ccc(OC(=O)N4CCC(N5CCCCC5)CC4)cc13)-c1cc3c(c(=O)n1C2)COC(=O)[C@]3(O)CC [Irinotecan, reference compound]",Free SN-38 at 120 hours,[2],Not detectable
